From patent US4584305A, “Aiding the regression of neoplastic disease with 2,3,5,6-tetrahydro-6-phenylimidazo[2,1-b]thiazole” (Janssen Pharmaceutica N.V., priority 1981, dated 1986)
Read-outs that look alike come from different tables or passages of the source.

How the values were obtained:
[1] = tested on: primary 3 LL tumour (Lewis Lung 3LL); conditions: for Primary tumour: negative intake: autopsy day 21; for Primary tumour: geometric mean weight (g) in positive mice: untreated 3.70 g
[2] = tested on: pulmonary metastases of 3 LL tumour (Lewis Lung 3LL); conditions: for Lung metastases: negative mice: autopsy day 21; for Lung metastases: geometric No. in positive mice: untreated 20.2
[3] = group 2, 0.5 mg kg^-1 levamisole s.c., day 1, 12 mice
[4] = group 3, 0.5 mg kg^-1 levamisole, days 7, 9, 11, 13, 15, 17, 10 mice
[5] = single injection of 0.5 mg kg^-1, 24 hr after tumor inoculation
[6] = treatment started after subcutaneous tumor had developed (day 7, every 2 days to day 17, 0.5 mg kg^-1)

c1ccc(C2CN3CCSC3=N2)cc1 (stereo not drawn) [levamisole, 2,3,5,6-tetrahydro-6-phenyl-imidazo[2,1-b]thiazole]
Primary tumour: negative intake [1, 3]: 3 | Primary tumour: geometric mean weight (g) in positive mice ([1]; group 2, 0.5 mg kg^-1 levamisole s.c., day 1, 12 mice, confidence interval (0.95) 1.43-3.11): 2.27 g | Primary tumour: negative intake [1, 4]: 4 | Primary tumour: geometric mean weight (g) in positive mice ([1]; group 3, 0.5 mg kg^-1 levamisole, days 7, 9, 11, 13, 15, 17, 10 mice, confidence interval (0.95) 0.93-1.87): 1.40 g | inhibition of primary tumor growth in the 9 other mice [1, 5]: significantly (P=0.01) inhibited | mice completely cured [1, 5]: 3 out of 12 | mice cured [1, 6]: 4 out of 10 | primary tumor in the remaining mice [1, 6]: significantly (P=0.01) reduced | Lung metastases: negative mice [2, 3]: 3 | Lung metastases: geometric No. in positive mice ([2]; group 2, 0.5 mg kg^-1 levamisole s.c., day 1, 12 mice, confidence interval (0.95) 0.7-5.7): 3.2 | Lung metastases: negative mice [2, 4]: 5 | Lung metastases: geometric No. in positive mice ([2]; group 3, 0.5 mg kg^-1 levamisole, days 7, 9, 11, 13, 15, 17, 10 mice, confidence interval (0.95) 1.5-4.5): 3.0 | inhibition of the number of pulmonary metastases in the 9 other mice [2, 5]: significantly (P=0.01) inhibited | additional animals that did not demonstrate any lung metastases [2, 6]: one additional animal | pulmonary metastases in the remaining mice [2, 6]: significantly (P=0.01) reduced
